The values below come from patent publication US9422233B2 (priority 2011, dated 2016).

One assay concerns female CD-1 mice. In words: Mouse ear vesicant model (MEVM), edema of ear punches. The settings on record: CEES is the inflammatory inducer; test compound 1 to 2 micromoles topical; six hours after exposure.
`COCCOC(=O)N(O)Cc1ccc(O)c(OC)c1`: the “percent suppression of inflammatory edema weight gain in ear punches” value (“percent suppression” below) amounted to 80%.

Regarding `CCCCCCCCOC(=O)N(O)Cc1ccc(O)c(OC)c1` [Compound 4c, Octyl-N-hydroxy(4-hydroxy-3-methoxybenzyl)carbamate], the “percent suppression” value was 69%. Same read-out and setting: the figure for `COc1cc(CN(O)C(=O)Oc2ccccc2)ccc1O` [Compound 4g, Phenyl-N-hydroxy(4-hydroxy-3-methoxybenzyl)carbamate] is 43%.

Still in this assay, the particulars now being: TPA is the initiator; test compound 1 to 2 micromoles topical; six hours after exposure.
Take `CCCCCCCC/C=C\CCCCCCCC(=O)N(O)Cc1ccc(O)c(OC)c1` [Compound 5a, (9Z)—N-Hydroxy-N-[(4-hydroxy-3-methoxyphenyl)methyl]-9-Octadecenamide]: the “percent suppression” value stood at 64%. On the same count and under the same terms, the figure for `CCCCCCCN(O)C(=O)Cc1ccc(O)c(OC)c1` [Compound 10a, N-heptyl-N-hydroxy-2-(4-hydroxy-3-methoxyphenyl)acetamide] is 50%.

For `CCCCCCCCN(O)C(=O)Cc1ccc(O)c(OC)c1` [Compound 10b, N-octyl-N-hydroxy-2-(4-hydroxy-3-methoxyphenyl)acetamide], the “percent suppression” value turned out to be 49%.
